# Source: PubChem BioAssay AID1029 (Sanford-Burnham Center for Chemical Genomics, 2008)
# The list shows a part of the results, in another mix than the full data. Active and inactive are the calls of the source.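 The calls were made as follows: active = inhibition above the mean of the plate negative controls plus 5 SD (cut at about 13% in these data); inactive = the rest.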
# Assay: inhibitors of macrophage phagocytosis, primary screen, imaging, J774A.1 cells, IgG beads (AID 1029);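 also: phagocytic index as fraction of beads internalized from green versus red external bead signal; plate controls were DMSO negative control for no effect and cytochalasin-D positive control for full effect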
# Conditions: J774A.1 macrophage IgG-bead phagocytosis, at 5 µM, stronger effect = higher value
row,SMILES,inhibition
1,O=[N+]([O-])c1cc([N+](=O)[O-])c(-c2ccn[nH]2)s1,inactive: -3.68%
2,CCN(CC)C(=S)SC(NC=O)C(Cl)(Cl)Cl (stereo unspecified),inactive: 1.1%
3,Cc1ccc2nc3c(c(C)c2c1)CC(C(Cl)Cl)S3 (stereo unspecified),inactive: -6.11%
4,O=C(OC1CN2CCC1CC2)C12CC3CC(CC(C3)C1)C2 (stereo unspecified),inactive: 1.1%
5,Cc1c2c(nc3ccccc13)SC(C(Cl)Cl)C2 (stereo unspecified),inactive: -16.8%
6,COP1(=S)c2c(C)nn(CCC#N)c2N=C(c2ccc(F)cc2)N1C (stereo unspecified),inactive: 0.9%
7,O=C(COc1ccccc1)OC1CN2CCC1CC2 (stereo unspecified),inactive: -0.9%
8,Cc1cc(SC(NC(=O)c2ccccc2)C(Cl)(Cl)Cl)nc(C(C)C)n1 (stereo unspecified),inactive: -10.9%
9,O=P1(Nc2ncccn2)COc2ccccc2OC1,inactive: 2.4%
10,Cc1ccc(OCC(=O)OC2CN3CCC2CC3)cc1 (stereo unspecified),inactive: -0.3%
11,O=P1(Nc2ccc(Br)cn2)COc2ccccc2OC1,inactive: -1.8%
12,Cc1nn(-c2ccccc2)c2c1P(=O)(N1CCOCC1)N(C)C(c1ccccc1)=N2 (stereo unspecified),inactive: 2.1%
13,O=P1(Nc2ccccn2)COc2ccccc2OC1,inactive: -1.2%
14,Clc1n[nH]nc1-c1nn[nH][15n]1,inactive: -1.1%
15,CCOP(=O)(Nc1cccc2ccccc12)OCC,inactive: -0.19%
16,COc1cc(C2NCCC3(OCCO3)C2(C)C)cc(OC)c1OC (stereo unspecified),inactive: -3.74%
17,Cc1cccc(OCC(=O)OC2CN3CCC2CC3)c1 (stereo unspecified),inactive: -1.9%
18,O=[N+]([O-])c1ccc2c(c1)nnn2O,inactive: -1.1%

row,SMILES,inhibition
1,CCOP1(=S)c2c(C)nn(CCC#N)c2N=C(c2ccc(F)cc2)N1C (stereo unspecified),inactive: -0.5%
2,O=P(Nc1nccs1)(c1ccccc1)c1nc2ccccc2s1 (stereo unspecified),inactive: 0.3%
3,CCOP1(=S)c2c(C)nn(CCC#N)c2N=C(c2ccccc2F)N1C (stereo unspecified),inactive: 0.9%
4,CC(=O)NC(SC(=S)N(CC(C)C)CC(C)C)C(Cl)(Cl)Cl (stereo unspecified),inactive: -2.32%
5,O=P1(Nc2nc3ccc(Cl)cc3s2)COc2ccccc2O1 (stereo unspecified),inactive: -1.4%
6,O=P(Nc1nccs1)(c1ccccc1)c1ccccc1,inactive: -0.7%
7,c1nnnn1CCn1cnnn1,inactive: -3.3%
8,CC(=O)NC(SC(=S)N(C)C)C(Cl)(Cl)Cl (stereo unspecified),inactive: -2.52%
9,C(Cc1nn[nH]n1)Cc1nn[nH]n1,inactive: 1.72%
10,O=C(OC1CN2CCC1CC2)c1cccc(Cl)c1 (stereo unspecified),inactive: -0.8%
11,CN(C)C(=O)OCCc1n(C)cc[n+]1C,inactive: -6.34%
12,CCc1nc2c(n1)c1c(non1O)c1c2no[n+]1[O-],inactive: -4.2%
13,O=C(NC(Sc1ccncn1)C(Cl)(Cl)Cl)c1ccccc1 (stereo unspecified),inactive: -6.14%
14,Cc1c2non([O-])c-2c(C)[n+](=O)[n+]1[O-],inactive: -1%
15,Oc1ccccc1CNc1ccccn1,inactive: -1.7%
16,CCN(N=Nc1nonc1N)c1nonc1N,inactive: -5.29%
17,Cc1cc(SC(NC(=O)c2ccc(F)cc2)C(Cl)(Cl)Cl)ncn1 (stereo unspecified),inactive: -10.1%
18,CCOP(=O)(Nc1ccccc1)OCC,inactive: -0.7%
